Reference: patent US20250109201A1 (AGENUS, published 2025)

Chains of the proteins cited; added tags and fusions are not shown. A line that says so, or that is headed by a name, gives the form on record, which may keep a tag or linker. Residues count along the entry.
UniProt Q8NHL6, 24-458: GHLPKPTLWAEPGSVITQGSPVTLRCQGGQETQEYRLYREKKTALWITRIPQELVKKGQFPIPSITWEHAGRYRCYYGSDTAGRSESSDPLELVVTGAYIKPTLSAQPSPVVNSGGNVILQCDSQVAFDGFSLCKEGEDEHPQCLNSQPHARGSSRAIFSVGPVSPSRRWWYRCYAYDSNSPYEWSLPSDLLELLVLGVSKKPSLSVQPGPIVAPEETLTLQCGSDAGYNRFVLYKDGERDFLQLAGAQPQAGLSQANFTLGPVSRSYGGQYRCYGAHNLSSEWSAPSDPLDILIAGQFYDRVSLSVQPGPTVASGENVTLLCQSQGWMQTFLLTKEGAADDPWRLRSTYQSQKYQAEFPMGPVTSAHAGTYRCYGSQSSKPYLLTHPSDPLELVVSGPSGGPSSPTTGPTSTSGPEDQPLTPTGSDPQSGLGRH
UniProt Q8NHL6, 24-650: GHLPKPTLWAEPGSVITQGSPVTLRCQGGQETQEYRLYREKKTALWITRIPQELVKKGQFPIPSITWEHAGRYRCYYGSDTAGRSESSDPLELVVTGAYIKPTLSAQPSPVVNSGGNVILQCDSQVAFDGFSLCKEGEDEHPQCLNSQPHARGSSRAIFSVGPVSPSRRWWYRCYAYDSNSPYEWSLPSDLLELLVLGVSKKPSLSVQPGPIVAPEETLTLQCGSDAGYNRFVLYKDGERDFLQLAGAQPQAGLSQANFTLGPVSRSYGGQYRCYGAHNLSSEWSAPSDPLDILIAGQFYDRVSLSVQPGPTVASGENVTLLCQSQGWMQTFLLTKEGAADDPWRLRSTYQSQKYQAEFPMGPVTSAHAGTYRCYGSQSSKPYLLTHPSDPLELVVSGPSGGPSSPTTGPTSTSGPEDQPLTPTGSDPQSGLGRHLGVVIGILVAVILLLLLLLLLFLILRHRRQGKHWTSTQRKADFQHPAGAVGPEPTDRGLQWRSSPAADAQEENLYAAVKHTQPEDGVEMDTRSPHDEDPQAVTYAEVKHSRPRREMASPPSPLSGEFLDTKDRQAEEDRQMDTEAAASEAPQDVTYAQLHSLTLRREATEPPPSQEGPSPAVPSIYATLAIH
UniProt Q8NHL6, 24-482 limits assumed: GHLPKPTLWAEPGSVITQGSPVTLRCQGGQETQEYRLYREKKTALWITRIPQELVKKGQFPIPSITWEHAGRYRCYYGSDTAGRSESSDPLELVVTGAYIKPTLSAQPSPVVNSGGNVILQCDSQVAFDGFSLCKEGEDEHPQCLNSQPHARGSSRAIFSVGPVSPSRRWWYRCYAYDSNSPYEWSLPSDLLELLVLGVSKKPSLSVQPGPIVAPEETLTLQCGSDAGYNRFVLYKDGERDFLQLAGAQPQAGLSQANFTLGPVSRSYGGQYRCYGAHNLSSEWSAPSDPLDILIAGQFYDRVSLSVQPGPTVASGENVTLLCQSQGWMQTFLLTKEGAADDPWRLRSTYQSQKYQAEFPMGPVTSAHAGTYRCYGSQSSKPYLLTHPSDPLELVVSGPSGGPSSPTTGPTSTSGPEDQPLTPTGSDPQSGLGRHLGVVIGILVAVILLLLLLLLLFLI
ECD-His tagged African green monkey (AGM) ILT2 orthologue protein, one chain, as listed by the source: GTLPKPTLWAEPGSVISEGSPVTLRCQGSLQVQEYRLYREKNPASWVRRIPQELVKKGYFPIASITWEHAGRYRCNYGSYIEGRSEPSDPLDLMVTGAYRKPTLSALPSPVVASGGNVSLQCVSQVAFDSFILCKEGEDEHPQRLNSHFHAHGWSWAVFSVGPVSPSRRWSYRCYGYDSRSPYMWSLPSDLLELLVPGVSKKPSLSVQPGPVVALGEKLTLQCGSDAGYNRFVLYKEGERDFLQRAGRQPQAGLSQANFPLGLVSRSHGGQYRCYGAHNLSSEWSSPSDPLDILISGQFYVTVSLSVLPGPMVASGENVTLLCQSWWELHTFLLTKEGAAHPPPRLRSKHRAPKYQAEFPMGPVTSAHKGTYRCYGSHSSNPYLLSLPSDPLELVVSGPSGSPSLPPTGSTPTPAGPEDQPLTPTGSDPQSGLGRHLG

Columns and labels:
[1] = biological target: T1, ECD-His tagged mouse PirB protein (R&D Systems, 2754PB050) (mouse, UniProt P97484 25-642); experiment: SPR
T1 construct: extracellular domain; Bought; not shown: His tag
T1 sequence (looked up): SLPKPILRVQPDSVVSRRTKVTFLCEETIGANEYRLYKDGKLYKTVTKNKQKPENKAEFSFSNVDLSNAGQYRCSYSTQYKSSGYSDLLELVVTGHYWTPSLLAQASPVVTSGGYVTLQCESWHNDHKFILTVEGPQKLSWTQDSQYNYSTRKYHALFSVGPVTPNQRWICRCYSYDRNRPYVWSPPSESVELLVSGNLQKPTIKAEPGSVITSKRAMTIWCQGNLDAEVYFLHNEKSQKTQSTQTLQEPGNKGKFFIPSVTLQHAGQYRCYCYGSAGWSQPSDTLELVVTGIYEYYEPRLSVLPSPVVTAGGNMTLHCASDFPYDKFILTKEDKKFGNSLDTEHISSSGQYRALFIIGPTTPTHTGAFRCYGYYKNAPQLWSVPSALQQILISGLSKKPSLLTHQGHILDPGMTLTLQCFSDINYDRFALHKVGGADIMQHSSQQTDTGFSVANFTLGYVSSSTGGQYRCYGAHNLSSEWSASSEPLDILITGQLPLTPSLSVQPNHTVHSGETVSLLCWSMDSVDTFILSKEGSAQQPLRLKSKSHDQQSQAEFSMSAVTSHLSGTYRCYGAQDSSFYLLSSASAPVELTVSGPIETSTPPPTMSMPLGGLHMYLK

[2] = biological target: T2, ECD-His tagged rhesus monkey ILT2 orthologue protein, variant 2 (rhesus monkey); experiment: SPR
T2 construct: also called Rhesus ILT2 variant 2; not shown: His tag

[3] = biological target: T3, ECD-His tagged African green monkey (AGM) ILT2 orthologue protein (African green monkey); experiment: SPR
T3 construct: also called African Green Monkey ILT2 ECD; not shown: His tag

[4] = biological target: T4, ECD-His tagged cynomolgus monkey ILT2 orthologue protein, variant 2 (cynomolgus monkey); experiment: SPR
T4 construct: also called Cyno ILT2 variant 2; not shown: His tag

[5] = biological target: T5, ECD-His tagged rhesus monkey ILT2 orthologue protein, variant 1 (rhesus monkey); experiment: SPR
T5 construct: also called Rhesus ILT2 variant 1; not shown: His tag

[6] = biological target: T6, ECD-His tagged cynomolgus monkey ILT2 orthologue protein, variant 1 (cynomolgus monkey); experiment: SPR
T6 construct: also called Cyno ILT2 variant 1; not shown: His tag

[7] = biological target: T7, ECD-His tagged human ILT2 haplotype PE01 (human, UniProt Q8NHL6, in part); experiment: SPR, LILRA and LILRB family panel
T7 construct: also called Human ILT2 PE01 ECD; LILRB1/ILT2 PE01; not shown: His tag
Source text: Irrelevant antibody VRC01 IgG1 N297A was used as a negative isotype control.

[8] = biological target: full-length ILT2 expressed on Jurkat cells (human, UniProt Q8NHL6); experiment: cell-based or functional assay
[9] = biological target: T8, human ILT2 extracellular and transmembrane domains expressed on CHO cells (human, UniProt Q8NHL6, in part); experiment: flow cytometry, blocking of HLA-G-Fc-PE on CHO cells with high human ILT2
T8 construct: domain: extracellular and transmembrane domains; which one is told under assay; also called CHO cells expressing human ILT2 (relatively low or relatively high level); CHO-ILT2 cells
Description: Samples were analyzed by sequentially gating on the single cell population and plotting histograms representing the fluorescence in the PE channel.

[10] = biological target: T7, ECD-His tagged human ILT2 haplotype PE01; experiment: SPR, LILR family panel
Description: Briefly, SPR experiments were performed using a Biacore T200 instrument, and the association rate (Kₐ), dissociation rate (Kd), and dissociation constant (KD) were calculated from each experiment using a 1:1 binding model with Biacore™ T200 Evaluation Software. Capture of antibodies from the Human Fab Capture kit (28958325, GE Healthcare) to the Series S CM5 sensor chip (29149603, GE Healthcare) was performed using the immobilization wizard for amine coupling from the Biacore™ control panel and following the manufacturer's recommendations included with the kit.

binding result [1]: no binding
binding result [2]: no binding
binding result [3]: no binding
binding result [4]: no binding
binding result [5]: no binding
binding result [6]: no binding
Kd [7]: 0.2 nM
FcγRIIIa-NFAT luciferase signaling, EC50 [8]: 0.07 µg/mL
IC50 [9]: 0.103 µg/mL
Kd [10]: 0.24 nM
koff [10]: 0.00011 s⁻¹
kon [10]: 480000 M⁻¹ s⁻¹
B1: BA252 (antibody, human IgG4 S228P, kappa)
heavy: QVQLVQSGAEVKKPGASVKVSCKASGYTFNRYYMHWVRQAPGQGLEWMGWINPYTGGTNYAQKFQGRVTMTRDTSISTAYMELSRLRSDDTAVYYCASKQPSSDYWGQGTLVTVSSASTKGPSVFPLAPCSRSTSESTAALGCLVKDYFPEPVTVSWNSGALTSGVHTFPAVLQSSGLYSLSSVVTVPSSSLGTKTYTCNVDHKPSNTKVDKRVESKYGPPCPPCPAPEFLGGPSVFLFPPKPKDTLMISRTPEVTCVVVDVSQEDPEVQFNWYVDGVEVHNAKTKPREEQFNSTYRVVSVLTVLHQDWLNGKEYKCKVSNKGLPSSIEKTISKAKGQPREPQVYTLPPSQEEMTKNQVSLTCLVKGFYPSDIAVEWESNGQPENNYKTTPPVLDSDGSFFLYSRLTVDKSRWQEGNVFSCSVMHEALHNHYTQKSLSLSLG
light: DIVMTQSPLSLPVTPGEPASISCRSSQSLLHSNTYNYLDWYLQKPGQSPQLLIYLGSNRASGVPDRFSGSGSGTDFTLKISRVEAEDVGVYYCLQASQAPWTFGQGTKVEIKRTVAAPSVFIFPPSDEQLKSGTASVVCLLNNFYPREAKVQWKVDNALQSGNSQESVTEQDSKDSTYSLSSTLTLSKADYEKHKVYACEVTHQGLSSPVTKSFNRGEC
